RAD52 anneal inh = RAD52 (human) annealing inhibition. P43351. recombinant RAD52 DNA annealing, FRET fluorescence. inhibition, % at 18.7 µM. actives 0.46% (n = 360,000);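 active = every replicate showing at least 50% inhibition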
Yeast UUG start = alters start codon recognition fidelity in yeast. 350,000 tested, 0.13% active. activity score, % at 18.7 µM. S. cerevisiae UUG-firefly luciferase reporter, luminescence/redox ratio;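 active = replicate mean at a twofold rise or more, about +100% in these data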;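 also: firefly luciferase made from a UUG start codon reports start codon fidelity; reporter light over untreated wells divided by growth signal over untreated wells; some hits fall short of that in this replicate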
RAD54 branch = inhibitors of human RAD54 branch migration. Q92698. RAD54 Holliday junction branch migration, FAM/BHQ fluorescence. inhibition, % at 10.4 µM. actives 0.14% (n = 360,000). AID 602329;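 active = mean normalized replicate activity at least 40 and at least half of replicates scoring 40 or more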;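 also: inhibitors cause a drop in the FAM fluorescence signal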
SIRT5 block = inhibitors of human sirtuin-5 desuccinylase | Q9NXA8 | inhibition, % at 15 µM | actives 1.1% (n = 330,000) | Purified SirT5, succinyl-peptide AMC, trypsin-coupled fluorescence; in the data active = inhibition above about 15%
E-selectin induc = induces E-selectin expression in human endothelial cells; P16581; HUVEC E-selectin immunofluorescence imaging; normalized: neutral wells 0, TNF-alpha wells 100; activation, % at 7.58 µM; actives 0.37% (n = 260,000); AID 686992;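 active = mean E-selectin-positive cell signal at least 10% of the positive control, reached in at least 60% of replicates, without over 20% cell loss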
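Test system: HUVEC; input: 3,000 HUVEC/well; measured by: immunofluorescence imaging; read-out: % PE-positive cells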
MLL AF4-AF9 inh = MLL-AF4/AF9 protein interaction inhibition; inhibition, % at 10 µM; AID 651704; AlphaScreen, biotin-AF4 peptide binding to FLAG-AF9; actives 0.47% (n = 350,000);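 active = every replicate reaching a set inhibition limit, whatever the replicate mean, cut at about 25% in these data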
A number is an active result; . = inactive; / = not tested or not shown. This is a sample that favours compounds with a hit; in the whole collection about 1.8% have one here.

SMILES	RAD52 anneal inh	Yeast UUG start	RAD54 branch	SIRT5 block	E-selectin induc	MLL AF4-AF9 inh
CS(=O)(=O)c1ccccc1-c1csc(N2CCC(C(N)=O)CC2)n1	.	/	/	.	41	.
NC(=O)C1CCN(c2nc(-c3ccccc3F)cs2)CC1	.	.	.	/	.	.
COc1ccc(-n2c(C)cc(C)c(C(C)=O)c2=S)cc1	.	.	.	27	.	.
C[C@H]1CN([C@@H](C)CO)C(=O)c2c(c3ccccc3n2C)-c2ccccc2CO[C@H]1CN(C)C(=O)c1ccc(F)cc1	.	.	.	.	.	.
Cc1ccc(S(=O)(=O)Nc2ccc3c(c2)C(=O)N([C@@H](C)CO)C[C@H](C)[C@@H](CN(C)C(=O)Nc2ccc(C(F)(F)F)cc2)OCCCC[C@@H](C)O3)cc1	.	.	.	18	.	.
Cc1ccc(S(=O)(=O)Nc2ccc3c(c2)C(=O)N([C@@H](C)CO)C[C@@H](C)[C@@H](CN(C)C(=O)Nc2ccc(C(F)(F)F)cc2)OCCCC[C@@H](C)O3)cc1	.	.	.	15	.	.
C[C@H](CO)N1C[C@H](C)[C@H](CN(C)C(=O)CCC(F)(F)F)OCCCC[C@H](C)Oc2ccc(NS(=O)(=O)c3ccc(Cl)cc3)cc2C1=O	.	/	.	17	.	.
C[C@H](CO)N1C[C@H](C)[C@H](CN(C)C(=O)Nc2ccc(C(F)(F)F)cc2)OCCCC[C@H](C)Oc2ccc(NS(=O)(=O)c3ccc(Cl)cc3)cc2C1=O	.	.	.	40	.	.
Cc1ccc(S(=O)(=O)Nc2ccc3c(c2)C(=O)N([C@H](C)CO)C[C@H](C)[C@@H](CN(C)C(=O)Nc2ccc(C(F)(F)F)cc2)OCCCC[C@@H](C)O3)cc1	.	.	.	.	.	.
Cc1ccc(S(=O)(=O)Nc2ccc3c(c2)C(=O)N([C@@H](C)CO)C[C@H](C)[C@H](CN(C)C(=O)Nc2ccc(C(F)(F)F)cc2)OCCCC[C@H](C)O3)cc1	.	/	/	/	.	.
COc1ccc(-c2ccc(C3[C@H]4CNC[C@@H]3N4S(=O)(=O)c3ccc(OC)cc3)cc2)cc1 (stereo not given in full)	.	/	/	.	.	.
CC(C)NC(=O)N1[C@@H](CO)[C@H](c2ccccc2)[C@@H]1CNC(=O)CN(C)C	/	.	.	/	.	/
C/C=C/c1ccc([C@H]2[C@@H](CO)N(CC3CCCCC3)[C@@H]2CNC(C)C)cc1	.	/	/	19	.	.
COCCn1c(=S)[nH]c2ncccc2c1=O	/	.	.	/	/	/
COc1ccc(-n2c(=S)[nH]c3ncccc3c2=O)cc1	.	/	/	15	.	.
CC(C)NC(=O)N1[C@H](CO)[C@@H](c2ccccc2)C12CN(Cc1ccccc1)C2	.	/	/	.	.	.
CN(C)CCCNC(=O)C[C@@H]1CC[C@@H]2[C@H](COC[C@@H](O)CN2CC2CCCCC2)O1	.	/	/	.	.	.
O=C(C[C@@H]1CC[C@@H]2[C@H](COC[C@@H](O)CN2S(=O)(=O)c2ccc(F)cc2)O1)NCC1CC1	.	/	.	.	.	.
Cc1ccc(S(=O)(=O)N2C[C@H](O)COC[C@H]3O[C@H](CC(=O)NCC4CCCCC4)CC[C@@H]32)cc1	65	.	.	.	.	.
CN(C)CCCNC(=O)C[C@@H]1CC[C@H]2[C@@H](COC[C@H](O)CN2CC2CCCCC2)O1	65	/	/	.	.	.
Cc1ccc(S(=O)(=O)N2C[C@@H](O)COC[C@H]3O[C@H](CC(=O)NCC4CCCCC4)CC[C@@H]32)cc1	82	.	.	.	.	30
O=C(C[C@@H]1CC[C@@H]2[C@H](COC[C@H](O)CN2S(=O)(=O)c2ccc(F)cc2)O1)NCC1CCCCC1	.	.	.	.	.	.
CO[C@@H](C(=O)N(C)C[C@H]1OCc2ccccc2-c2c(n(C)c3ccccc23)C(=O)N([C@@H](C)CO)C[C@@H]1C)c1ccccc1	.	/	.	.	.	.
CO[C@H]1CN(C)C(=O)c2ccc(NC(=O)C3CCCC3)cc2OC[C@@H](C)N(C(=O)CC2CC2)C[C@@H]1C	.	/	.	.	.	.
Cc1ccnc(NC(NC(=O)C(C)C)(C(F)(F)F)C(F)(F)F)c1	.	/	/	.	136	.
SMILES	RAD52 anneal inh	Yeast UUG start	RAD54 branch	SIRT5 block	E-selectin induc	MLL AF4-AF9 inh
O=C(N[C@@H](Cc1ccccc1)c1nc2ccccc2[nH]1)c1ccc([N+](=O)[O-])cc1	.	/	/	.	/	.
O=C(NC(Cc1ccccc1)c1nc2ccccc2[nH]1)c1cccc([N+](=O)[O-])c1 (stereo not given)	.	/	/	/	83	.
C[C@@H]1CN([C@H](C)CO)C(=O)Cc2cc(NS(=O)(=O)c3ccccc3)ccc2O[C@H]1CN(C)Cc1ccc(Cl)c(Cl)c1	.	.	.	18	.	.
C[C@H](CO)N1C[C@H](C)[C@@H](CN(C)Cc2ccc3c(c2)OCO3)Oc2ccc(NS(=O)(=O)c3ccc(Cl)cc3)cc2CC1=O	.	.	.	18	.	.
C[C@H]1CN([C@@H](C)CO)C(=O)Cc2cc(NS(=O)(=O)c3ccc(Cl)cc3)ccc2O[C@H]1CN(C)Cc1ccc(Cl)c(Cl)c1	.	.	.	.	.	.
C[C@@H]1CN([C@H](C)CO)C(=O)Cc2cc(NS(=O)(=O)c3ccc(Cl)cc3)ccc2O[C@@H]1CN(C)Cc1ccc(Cl)c(Cl)c1	.	.	.	16	.	.
C[C@H]1CN([C@@H](C)CO)C(=O)Cc2cc(NS(=O)(=O)c3ccc(Cl)cc3)ccc2O[C@@H]1CN(C)Cc1ccc2c(c1)OCO2	.	.	.	.	.	.
CN(C)CC(=O)Nc1ccc2c(c1)[C@H]1C[C@@H](CC(=O)NCc3ccccc3)O[C@H](CO)[C@H]1O2	.	.	.	.	.	.
COCC(=O)N(C)C[C@H]1Oc2ncc(C#Cc3cccnc3)cc2C(=O)N([C@H](C)CO)C[C@H]1C	.	.	.	.	.	.
CC(C)(C)C(=O)Nc1sc2c(c1C(=O)Nc1ccccn1)CCCC2	.	.	.	18	.	.
COc1ccc(CN2C(=O)C(CC(=O)NCCc3ccccn3)CC(C(=O)N3CCOCC3)=C2C)cc1 (stereo not given)	.	.	.	21	.	.
O=C(C[C@H]1C[C@H]2c3cc(NC(=O)CC4CC4)ccc3O[C@H]2[C@@H](CO)O1)NCc1ccc2c(c1)OCO2	.	.	.	.	.	.
NC(=O)C1CCN(C(=S)NC2CC3C=CC2C3)CC1 (stereo not given)	.	.	.	.	.	.
CCOC(=O)C1CCN(C(=S)NC2CC3C=CC2C3)CC1 (stereo not given)	.	.	.	.	.	32
Cc1[nH]nc2c1C(c1ccco1)C(C#N)=C(N)O2 (stereo not given)	.	.	.	.	114	.
COc1ccc(S(=O)(=O)N(C)C[C@H]2OCCCC[C@H](C)Oc3ccc(NC(=O)Nc4c(C)noc4C)cc3C(=O)N([C@H](C)CO)C[C@H]2C)cc1	.	.	.	.	.	.

Screening results deposited in PubChem by Broad Institute.
